Protein sequences, listed by entry. Tags and fused reporters are not part of them.
UniProt Q8IYL9, whole entry: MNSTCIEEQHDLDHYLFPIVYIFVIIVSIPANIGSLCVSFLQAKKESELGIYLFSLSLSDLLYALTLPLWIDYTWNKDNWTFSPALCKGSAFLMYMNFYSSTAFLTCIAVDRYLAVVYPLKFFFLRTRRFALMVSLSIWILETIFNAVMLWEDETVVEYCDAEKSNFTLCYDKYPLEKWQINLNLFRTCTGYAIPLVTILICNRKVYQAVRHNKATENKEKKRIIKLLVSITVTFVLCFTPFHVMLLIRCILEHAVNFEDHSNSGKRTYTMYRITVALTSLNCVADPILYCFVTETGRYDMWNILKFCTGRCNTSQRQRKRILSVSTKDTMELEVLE

In patent publication US12649744B2, “N-(pyridin-2-yl)-6,7,8,9-tetrahydro-5h-5,8-epiminocyclohepta[c]pyridine-10-carboxamide derivatives and similar compounds as GPR65 modulators for the treatment of cancer” (PATHIOS THERAPEUTICS LIMITED, priority 2020, dated 2026):

Target: human recombinant GPR65 (Homo sapiens, UniProt Q8IYL9)
Assay: Human GPR65 cAMP HTRF antagonist assay
Format: cell-based
Details: read-out: hGPR65 IC50; 1321N1-hrGPR65 cells, assay pH of 7.2, cAMP HTRF
Excerpt: The “Human GPR65 cyclic adenosine monophosphate (cAMP) Homogeneous Time Resolved Fluorescence (HTRF) antagonist assay”, or simply “cAMP assay”, as described below, can be used to measure the potency of GPR65 modulators, which is expressed as the concentration of compound required to reduce the increase in cAMP concentration upon GPR65 activation by 50% (i.e. an IC50).
Human GPR65 Cyclic Adenosine Monophosphate (cAMP) Homogeneous Time Resolved Fluorescence (HTRF) Antagonist Assay Procedure
IC50 data was obtained by the following procedure:
1321N1 human astrocytoma cells stably expressing human recombinant GPR65 (1321N1-hrGPR65 cells, EuroscreenFast) were cultured according to the vendor's instructions.
Compounds were tested for their ability to antagonise GPR65, through measuring the concentration of cytoplasmic cAMP following treatment of the cells at a pH of 7.2 to activate GPR65 signalling and addition of the compound to be tested. […]
Accumulation of cAMP was detected by cAMP HTRF kit (Cisbio). d2-labeled cAMP and cryptate-labeled anti-cAMP antibody in Lysis and Detection Buffer (Cisbio) were added to assay plates, and the plates were incubated at room temperature for 1 h. […] Acceptor and donor emission signals were measured at 665 nm and 620 nm, respectively, and HTRF ratios were calculated as signal665 nm/signal620nm×10^4. […]

In the case of `O=C(Nc1cnc(Cl)c(Cl)c1)N1[C@H]2CC[C@@H]1c1ccnc(F)c1C2`, the IC50 is reported as 500 to 5000 nM.
